Assay results published in publication PMC5429092.

Assays:
[1] = target: binary complex of biotinylated PPP1R15A^(533-624)R578A and PP1 (UniProt O75807)
[2] = target: binary complex of biotinylated PPP1R15A^533-624 and PP1 (UniProt O75807)

EC50 of G-actin for eIF2α-P dephosphorylation with PPP1R15A^(533-624)R578A [100 nM] [1]: 0.02 µM
EC50 of G-actin for the initial velocity of eIF2α-P dephosphorylation (PPP1R15A^533-624 50 nM, PP1 0.625 nM) [2]: 0.013 µM
Substance: G-actin (from UniProt P68135 1-377) (natural protein)
